From patent US11141490B2, “Antibody-drug conjugates based on gold compounds” (Research Foundation of the City University of New York, priority 2018, dated 2021) come the findings set out here.

The pEC50 is the negative decadic logarithm of the EC50, by convention in mol/L. Low values mean a large EC50, high ones a small EC50.

pEC50: −log10 of the molar value.

Common to all, as to format: cell-based, human
The test system of one experiment is MCF-10A cells. The experiment is described as follows: Cell viability assay (PrestoBlue), MCF-10A. As to conditions: MCF-10A non-cancerous breast cell line, 72 h. As to the method:
(§1) Cell viability assays were carried out to investigate the anti-proliferative effect of the AGCs. […] Auranofin was used for comparative purposes. The main results are collected in FIG. 5 and the results for compound 2 can be found in Table 1). Cells were incubated with the compounds for 72 hours and viability was assessed with Presto Blue. […] As mentioned before, linkers bring considerable advantages in terms of ADC stability.
(§2) Cell viability analysis for all compounds and AGCs described.
(§3) MCF7, MCF10A and BT-474 were obtained from the American Type Culture Collection (ATCC) (Manassas, Va.) and cultured in Dulbecco's modified Eagle's medium (DMEM) (Mediatech) supplemented with 10% FBS, 1% NEAA and 1% penicillin-streptomycin (MCF7 AND MCF1 OA) or DME HG/F12K, NEAA, 2 mM glutamine, 10% FBS/PS and incubated at 37° C. and 5% CO2 in a humidified incubator.
(§4) After 72 h, cell viability was determined by means of the colorimetric cell viability assay PrestoBlue (Invitrogen, Carlsbad, Calif.) according to the manufacturer's intructions. EC50 were fit using GraphPad Prism 7 to best match the experimental data. […] AF has been described to be stable for longer than 72 hours in DMSO solution at room temperature.
(§5) Tables 3 and Table 4 show EC50 Values (μM) in MCF7, MCF10A and BT474 cell lines determined with [AuCl(PPh3)] (DMF), [Au(mba)(PPh3)]

The test system of a further experiment is BT-474 cells. As to the kind of experiment: Cell viability assay (PrestoBlue), BT-474. The following applies: BT-474, 72 h. As to the method: as §1, §2, §3, §4, §5
Another experiment concerns MCF-7 cells. As to the kind of experiment: Cell viability assay (PrestoBlue), MCF-7. As to conditions: MCF-7, 72 h. As to the method: as §1, §2, §3, §4, §5

Consider Trastuzumab [Tz], for which the pEC50 with MCF-10A cells was less than 4.30; with BT-474 cells, less than 4.22; in the experiment on MCF-7 cells, less than 4.22.
